Data published in patent publication US20190209515A1, “Treatment of Bladder Cancer by Intratumoral Injection of Taxane Particles” (CRITITECH, INC., priority 2018, published 2019).

Conditions: not told, pH 4

For docetaxel, which “solubility in the Receptor Fluid” value is on record?
Its value is “sufficient to maintain sink conditions”.
